Laboratory results: patent US4438104A, “Endorphins having placental or pancreatic origin” (Endorphin, Inc., priority 1982, dated 1984)

Test system: opiate receptors in rat brain homogenates
Experiment: Radioreceptor assay (RRA): displacement of H^3-Naloxone binding in rat brain tissue
Details: stereospecificity

CN1CC[C@]23CCCC[C@H]2[C@H]1Cc1ccc(O)cc13 [Levorphanol]
potency in displacing Naloxone relative to enantiomer Dextrophan: 500 times
